{
  "sequences": {"note": "Protein sequences, listed by entry. Tags and fused reporters are not part of them. Residues count along the entry.", "UniProt P28335, 33-458": "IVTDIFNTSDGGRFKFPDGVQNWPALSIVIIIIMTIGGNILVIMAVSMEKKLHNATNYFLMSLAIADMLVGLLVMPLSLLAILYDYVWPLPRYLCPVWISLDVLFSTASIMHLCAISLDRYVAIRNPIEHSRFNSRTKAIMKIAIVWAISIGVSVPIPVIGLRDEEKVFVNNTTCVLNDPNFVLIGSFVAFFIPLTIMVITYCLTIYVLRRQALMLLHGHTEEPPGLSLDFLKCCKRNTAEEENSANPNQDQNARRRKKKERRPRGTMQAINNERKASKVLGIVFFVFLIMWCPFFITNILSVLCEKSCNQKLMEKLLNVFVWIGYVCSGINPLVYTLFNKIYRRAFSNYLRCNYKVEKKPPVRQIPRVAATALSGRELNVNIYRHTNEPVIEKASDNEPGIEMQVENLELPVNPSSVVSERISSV"},
  "source": "paper PMC2749987",
  "about": "(2009)",
  "target": "human 5-HT2C receptor (Homo sapiens, UniProt P28335)",
  "conditions": "read-out: KD of radioligand at 5-HT2C receptors; saturation binding",
  "data": [
    {"substance": "[^3H]-Mesulergine [reference compound]", "values": [
      {"measurement": "Kd", "result": "0.88 ± 0.03", "unit": "nM"}
    ]}
  ]
}
